“Also recorded” adds a separate entry of the source.
Key:
panic-prone rats = conditions: 30 mg/kg i.p. prior to 15 min i.v. infusion of 0.5M sodium lactate
Description: Panic disorder is associated with disruption of central inhibitory gamma-aminobutyric acid (GABAergic) tone, and may contribute to panic attacks which are consistently provoked by ordinarily mild physical stressors such as mild osmotic disturbances (e.g., intravenous sodium lactate challenges). […] Orexin/hypocretin producing neurons are almost exclusive to dorsomedial hypothalamus/perifornical area and adjacent lateral hypothalamus, and play a critical role in maintaining wakefulness, vigilance and central sympathetic mobilization, which are key components of panic and anxiety. Experiments were conducted to investigate whether the administration of either a systemic orexin 1 antagonist or silencing the hypothalamic orexin gene product with RNA interference could block lactate-induced panic responses.

ORX1 over ORX2 receptors = conditions: cited from earlier work

For `Cc1nc2ccc(NC(=O)Nc3ccnc4cccnc34)cc2o1` [SB334867, 1-(2-methylbenzoxazol-6-yl)-3-[1,5]naphthyridin-4-yl urea], the “"anxiety"-like responses [social interaction (SI) duration] after sodium lactate” value (panic-prone rats; FIG. 1B) is given as “attenuated; also recorded: blocks”, the “lactate induced increases in general locomotor activity (flight behavior)” value (panic-prone rats; FIG. 1E) is given as “attenuated; also recorded: blocks” and the “selectivity for ORX1 over ORX2 receptors” value (ORX1 over ORX2 receptors) is given as “around 100 ×”.
